## Apparent affinities of Ab-95 variants for a coronavirus HR2 peptide

Data: MIT Lincoln Laboratory AlphaSeq set, Engelhart et al. 2022, doi:10.1038/s41597-022-01779-4, as distributed in FLAb.

All variants were tested on one target, the spike HR2 peptide PDVDLGDISGINAS (SARS-CoV-2).

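The library (AAYL52) carries one to three amino acid substitutions per variant, with no insertions or deletions. The assay is AlphaSeq: two haploid yeast populations carry antibody and antigen on their surface. Pairs that bind mate more often; barcode pairs of the diploids are counted by sequencing. Read counts were normalised to the haploid input and turned into Kd by a linear fit to BCL2-family pairs of known affinity, for each replicate. The assay was run in three technical replicates.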

Ab-95 is the parent antibody, in scFv form: VH, then a (GGGGS)3 linker, then VL. The heavy chain is unchanged in all variants.
VH: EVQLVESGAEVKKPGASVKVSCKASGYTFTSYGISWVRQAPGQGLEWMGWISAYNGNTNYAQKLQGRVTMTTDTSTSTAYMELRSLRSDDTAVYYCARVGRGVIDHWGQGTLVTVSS
VL: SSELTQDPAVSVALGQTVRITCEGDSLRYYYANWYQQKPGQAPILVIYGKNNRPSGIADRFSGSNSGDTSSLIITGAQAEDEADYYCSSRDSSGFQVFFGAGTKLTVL

Variants are written as CDR1, CDR2 and CDR3 of the light chain (limits as in the source). Parent: EGDSLRYYYAN, GKNNRPS, SSRDSSGFQVF.
Affinities are written as log10 Kd with Kd in nM; a lower number is a better binder.
Where no diploid with the target was found in that replicate, the entry reads "n.d.": below detection, most likely a poor binder, though not proof of it.
In this assay the parent's reference entry averaged 2.31; its copy inside this library read 2.25.
As a blank, each scFv also met three strains without target: over library AAYL52, 28% of these pairings were detected, typically at 3.91 and seldom below 2.90. For each scFv, signals with the empty controls are counted beside the result, with their mean in brackets.

CDR-L1,CDR-L2,CDR-L3,"replicates, log10 nM",empty controls
EIASFRYYYAN,GKNNRPS,SSRDSSGFQVF,3.81 4.23 2.27,3 of 9 (3.59)
EGDLLRYMYAN,GKNNRPS,SSRDSSGFQVF,3.03 3.04 3.13,1 of 9 (3.64)
EGDSLRYYYAN,GKNNEPS,SSRDSSGFQCF,n.d. 3.73 n.d.,5 of 9 (3.96)
EGDSGRYYYAN,GKNNRPS,SCRDSSGFQVH,3.02 3.00 4.30,3 of 9 (3.66)
EGQSLRYYYAT,GKNNRPS,SSRDSSIFQVF,3.10 n.d. n.d.,5 of 9 (4.13)
EGDSLRYMYAN,GLNNRPS,SSRDSSGTQVF,2.28 2.16 2.07,5 of 9 (4.64)
EGDSLRYYYMN,GKNNRPS,YSRDSSHFQVF,3.89 5.81 n.d.,0 of 9
EGDSLYYYYLN,GKNNRPS,SSRDESGFQVF,3.66 2.99 3.62,8 of 9 (4.13)
EGDSLRWYYAN,GKNNRPS,SSRDSSGFIVF,3.39 4.63 4.54,6 of 9 (4.05)
EGDSLRYYYAN,RKNNRPS,HSRDSSGFAVF,4.85 n.d. 3.54,3 of 9 (4.16)
EGDSLRYQYHN,GKNNSPS,SSRDSSGFQVF,n.d. 2.88 2.92,3 of 9 (3.80)
EGFSLRYYYQN,GKNNRPS,SSRDSSPFQVF,3.16 n.d. n.d.,5 of 9 (3.74)
EGYSVRYYYAN,GKNNRPS,SSRDSSGKQVF,4.36 3.48 4.08,4 of 9 (4.05)
EPDSLRYYYAN,GKNNRPD,SSRDSSGFQVF,3.48 2.97 3.33,4 of 9 (4.00)
EGNSLRYYYFN,GKNNRPS,SSRDSSGFQVF,n.d. n.d. n.d.,3 of 9 (4.43)
EGDSERYYYAN,GKNNRPS,SSRDSWGFQVW,3.97 3.71 n.d.,2 of 9 (4.30)
EGDSCRYYYAN,GKNERMS,SSRDSSGFQVF,3.98 4.27 2.83,1 of 9 (3.63)
EGDSLRYYYAN,GKNNRSS,SPRDSSKFQVF,3.13 2.82 3.61,1 of 9 (4.23)
EGYSLRYDYAN,GKNNRPM,SSRDSSGFQVF,1.99 1.92 2.01,4 of 9 (4.22)
ERDSLRPYYAN,GKNNRPS,SDRDSSGFQVF,3.09 n.d. 4.10,5 of 9 (3.57)
EGDSLRYYYAN,GKQNNPS,SSRDSSVFQVF,3.47 5.09 n.d.,6 of 9 (3.96)
EPDSLRYYYEA,GKNNRPS,SSRDSSGFQVF,n.d. 5.28 n.d.,1 of 9 (3.48)
EGDSLRYYGTN,GKNNRPS,SSRDSSGFQYF,1.49 1.37 1.07,5 of 9 (3.95)
EGDSLRYYVAN,GKNNNPS,SSRDSSGFQGF,5.13 n.d. n.d.,2 of 9 (3.23)
EKDSLRYYYAN,GKNNRPS,SSRFSNGFQVF,4.28 4.05 4.76,3 of 9 (4.21)
EADSLAYYYAN,GKNNWPS,SSRDSSGFQVF,3.64 3.47 n.d.,5 of 9 (4.10)
EGDSLCYSYAN,GKNNRPS,SSRDSSGFGVF,1.37 1.59 1.04,3 of 9 (3.57)
EGNSLRYRYAN,GKNNRPS,SSRDSEGFQVF,1.57 1.40 0.95,1 of 9 (3.51)
EKDSLRYYYAN,GKCNRPS,SSRDSSGFHVF,3.45 n.d. n.d.,6 of 9 (4.38)
EWDSHRYYYAN,GKPNRPS,SSRDSSGFQVF,4.40 5.11 4.37,1 of 9 (4.85)
EGDSLRYNYAN,GENNKPS,SSRDSSGFQVF,0.63 0.54 0.03,1 of 9 (3.28)
EGDSLFYYYAY,GKNNRPS,SSRDSSGFQVF,4.09 n.d. n.d.,1 of 9 (2.14)
EGDSLRYYYAN,GFNNRPS,SSRDHSGFQVF,2.17 1.51 1.48,2 of 9 (3.13)
EGDSLRYYYAN,GKNNRPS,SMRDSSGEQVK,n.d. 2.68 n.d.,2 of 9 (2.58)
EGDSLRYYYWI,WKNNRPS,SSRDSSGFQVF,4.50 3.54 4.13,2 of 9 (3.91)
EGDSLRYYYAY,GKNNVRS,SSRDSSGFQVF,n.d. n.d. n.d.,0 of 9
EGDSLRYVYAN,GKNKRPS,SSRDDSGFQVF,2.29 2.41 2.09,3 of 9 (3.92)